Patent US20120196899A1, “METHODS AND PRODUCTS FOR TREATING INFLAMMATION” (Rock Creek Pharmaceuticals, Inc., priority 2010, published 2012)
Several values for one entry are separate records, joined by “and”; a condition that tells them apart may be missing. Equal entries are not always repeated.

Assays:
[1] = Necropsy observations and organ weights, day 15; format: in vivo, Sprague-Dawley rats; conditions: Group E, 0.75 mg/kg, males, individual animals, tartrate
Protocol: Body weight and food consumption was measured daily for 14 days. On day 15, urine was collected on all surviving animals. The animals were euthanized and bled via cardiac puncture, and blood was collected for analysis. Tissues were collected, weighed, evaluated for gross abnormalities, and stored in 10% neutral-buffered formalin.
(§1) On day 15, urine was collected on all surviving animals for urinalysis. The animals were euthanized and bled via cardiac puncture. Blood was collected for hematology, clinical chemistry, and coagulation analysis. Tissues were collected, weighed, and stored in 10% neutral-buffered formalin for possible future analysis.

[2] = Coagulation parameters (aPTT, PT), day 15; format: in vivo, Sprague-Dawley rats
Text: as §1
Individual values for the coagulation parameters activated partial thromboplastin (aPTT) and prothrombin times (PT) for each animal are listed in Table 34 (normal ranges, Table 30). These are summarized in terms of descriptive statistics in Table 25.

SMILES: CN1CCCC1c1cccnc1.O=C(O)C(O)C(O)C(=O)O (single isomer, unassigned; (-)) [Nicotine, (−) Nicotine hydrogen tartrate]
- Tissue Collection Weights: Liver [1]: 14.20 g
- P[…] ([2]; male, 0.75 mg/kg, group mean): 13.6 s
- P[…] ([2]; nicotine 0.75 mg/kg, female rats, individual animals, tartrate): 13.9 s and 14.2 s
- P[…] ([2]; nicotine 0.75 mg/kg, male rats, individual animals, tartrate): 13.8 s and 13.2 s and 14.2 s and 13 s
